Assay results from patent US7795378B2, “Peptide compositions for treatment of sexual dysfunction” (Palatin Technologies, Inc., priority 2002, dated 2010).

The chains behind the UniProt entries cited, without tags or fusion partners.
UniProt P32245, whole entry: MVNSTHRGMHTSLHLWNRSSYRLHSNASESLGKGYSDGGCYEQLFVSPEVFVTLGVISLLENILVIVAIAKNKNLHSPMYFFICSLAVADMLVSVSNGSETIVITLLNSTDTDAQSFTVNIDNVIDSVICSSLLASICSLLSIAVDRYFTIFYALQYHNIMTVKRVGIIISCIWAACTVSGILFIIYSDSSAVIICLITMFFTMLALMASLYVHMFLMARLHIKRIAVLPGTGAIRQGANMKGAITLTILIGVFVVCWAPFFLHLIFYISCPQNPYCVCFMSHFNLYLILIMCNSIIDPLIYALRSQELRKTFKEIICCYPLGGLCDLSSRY

Target: T1, hMC4-R (transfected HEK-293 cells) (Homo sapiens, UniProt P32245)
T1 construct: expressed in transfected cells
Experiment: Melanocortin receptor-specific functional activity (cAMP) assay
Assay type: cell-based
Conditions: HEK-293 cells expressing hMC4-R
Experimental: Functional assays to determine agonist or antagonist status of a test peptide may be conducted by any means known in the art. In one method, a CAMP assay is performed. Human MC4-R cells are grown to confluence in 96 well plates (plating approximately 250,000 cells per well). Identical sets of cells in triplicate are treated with 0.2 mM isobutylmethylxanthine (IBMX) and the chosen concentration of the peptide or alternatively the peptide in the presence of 20 nM NDP-MSH. Cells similarly treated but with only 20 nM NDP-MSH serve as positive control in a volume of 200 μL. A buffer blank, as a negative control, is also included. Incubation is for one hour at 37° C. after which the cells are lysed by the addition of 50 μL of a cell lysis buffer. Total CAMP accumulated in 250 μL of this solution is quantitated using a commercially available low pH cAMP assay kit (Amersham BioSciences) by the procedure specified by the kit supplier. Any peptide (not one of this invention) showing CAMP accumulation in the same range as or higher than the positive control (buffer blank in the presence of α-MSH) is considered to be an agonist. A peptide showing accumulation in the same range as the negative control (buffer blank in the absence of α-MSH) is ineffective at the test concentration if the result is similar to the positive control where α-MSH is also present in the assay. […]

[Nle^4, D-Phe^7]-α-MSH [NDP]
stimulation of intracellular cAMP production: caused production and accumulation of intracellular CAMP
